Sampled rows, rich in hits. Any-hit rate of the full collection: about 0.46%.
Chronic BCR inh: chronic active BCR signaling inhibition | ABC-DLBCL IkBa-CBG/CBR reporter, luminescence ratio, 4 h | Potency, µM (doses to about 46.1 µM), inactives show at the top dose activity change, negative = inhibition, usual class: inhibitors | hit rate 0.05% among 340,000 | AID 493014; active means well fitted inhibition curve with a large enough effect in the signal ratio, with a control signal flat, not every such curve was filed as active; inconclusive means small, poorly fitted or top-dose-only effect, or effect the other way, or a change in a side signal; the % refers to the signal ratio;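 further: potency means the concentration at half of the fitted maximal effect; plate controls were basal doxycycline-induced cells for no effect and cells given 10 µM MG132 for full effect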
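Concentration-response series (up to 46 uM) were applied to TMD8 dual-reporter cells for 4 h at 37C with doxycycline. Green/red ratio, after filter-overlap correction, defined %Activity; red signal alone was normalised to basal cells and zero luminescence.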
Pin1 inhibitor: inhibitors of human Pin1. Pin1 FP peptide displacement, HiFluor488, 10 min. Q13526. hit rate 0.009% among 390,000. AID 504891. Potency, µM (doses to about 115 µM), without a hit: top-dose activity, negative = inhibition, most hits filed as inhibitors; active means well fitted inhibition curve with a large enough effect in the polarisation, with a control signal flat, not every such curve was filed as active; inconclusive means small, poorly fitted or top-dose-only effect, or effect the other way, or a change in a side signal; inactive means no such curve, though single readings can be large or run the other way; the % refers to the polarisation; further: potency means the concentration at half of the fitted maximal effect; on the % scale 0 is the no-effect control and ±100 the full control effect
PKM2 activator: PKM2 (human) enzyme activation; P14618; purified PKM2, Kinase-Glo ATP luminescence, activation; response scale: 0% is enzyme alone, no compound; Potency, µM (top dose mostly 57.5 µM), for inactives: at the highest dose activation, actives largely listed as activators; hit rate 0.34% among 260,000; further: potency means the concentration at half of the fitted maximal effect; on the % scale 0 is the no-effect control and ±100 the full control effect; nearly all actives have a fitted effect of over 55% in size
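hPK-M2, >95% pure; 0.1 mM ADP / 0.5 mM PEP final; imidazole pH7.2 buffer w/ 7 mM MgCl2, 50 mM KCl; 1 h RT; Kinase-Glo lum. Intermediate enzyme activity for dual inhibitor/activator qHTS.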
miR-21 reporter: miR-21 reporter, rising signal | AID 2288 | HeLa miR-21 FLuc reporter, luciferase, 48 h | 340,000 tested, under 10 active | Potency, µM (titrated, usually from 38.3 µM), for the others: at the top dose reporter change, positive = more light; active = well fitted rising curve with a large enough effect; inconclusive = small, poorly fitted or top-dose-only effect; inactive = no such curve, though single readings can be large or run the other way;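 also: % of control where 0% means no effect; miR-21 action dims this reporter so a rising signal means less miR-21 action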
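Luminescence from a firefly luciferase reporter carrying a miR-21 binding site downstream, stably expressed under a CMV promoter in HeLa cells that make miR-21 endogenously, reports miRNA modulation after 48 h compound exposure up to approximately 40uM final.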
B2AR arrestin: beta2AR (human) beta-arrestin recruitment activity | beta-arrestin recruitment to beta2AR, cell-based reporter | Potency, µM (doses to about 46.1 µM), without a hit: top-dose activation, actives largely listed as activators | hit rate 0.02% among 330,000 | AID 492947;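 further: potency means the concentration at half of the fitted maximal effect; 0% = DMSO controls and full agonism = EC100 isoproterenol or metaproterenol; nearly all actives have a fitted effect of over 65% in size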
PINK1 expr mod: modulators of PINK1 expression | PINK1 immunofluorescence, high-content cytometry, 24 h | hit rate 0.2% among 410,000 | Potency, µM (top dose mostly 76.6 µM), inactives show at the top dose activation (PINK1 increase), most hits filed as activators; active means well fitted activation curve with a large enough effect; inconclusive means small, poorly fitted or top-dose-only effect; cell line not stated here; further: potency means the concentration at half of the fitted maximal effect; % of control where 0% means no effect; nearly all actives have a fitted effect of over 65% in size
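Compound titrations (5 concentrations, 24 h) on a stable cell line; DMSO and CCCP controls. Endpoint: fixed-cell PINK1 immunofluorescence with mitochondrial, cell and nuclear markers, scanned by microplate cytometer.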
The depositor's hits bear a star; [ ] = dose if it differs, or a comment. Unless noted, the call rests on the fitted dose curve; in most records, active means well fitted curve in the direction sought with a large enough effect; inconclusive means small, poorly fitted or top-dose-only effect, or another doubt; inactive means no such curve, though single readings can be large; an effect the other way counts as inactive or inconclusive.

Results for O=C(NCC1CCC2(CCN(Cc3cc4ccccc4o3)CC2)O1)c1ccccc1 (configuration not stated) ?
PINK1 expr mod: 4%

How did COc1ccc(C2Nc3ccccc3-c3cc(C)nn32)c(OC)c1 (configuration not stated) do in these assays?
Chronic BCR inh: inconclusive; Pin1 inhibitor: -2%; miR-21 reporter: -12%; PINK1 expr mod: -1%

Results for Cc1cc2n(n1)C(c1ccccc1Cl)Nc1ccccc1-2 (configuration not stated) ?
Chronic BCR inh: inconclusive; Pin1 inhibitor: 3%; PKM2 activator: 18µM*; miR-21 reporter: -9%; B2AR arrestin: 0%; PINK1 expr mod: 3%[38.3 µM]

How did O=C1OC(c2ccccc2)(c2ccccc2)N2CCN(C(=O)NCc3ccc(F)cc3)CC12 (configuration not stated) do in these assays?
Pin1 inhibitor: 8%

What do the screens show for `O=C(Cn1nc(CNc2ccc(Cl)cc2)[n+]2c1CCCCC2)c1ccc(Br)cc1`?
Chronic BCR inh: 22%; Pin1 inhibitor: 32%; PKM2 activator: 0%; miR-21 reporter: 24%; B2AR arrestin: 0%; PINK1 expr mod: 6%

How did O=C(Cn1nc(CNc2ccc(Br)cc2)[n+]2c1CCCCC2)c1ccc([N+](=O)[O-])cc1 do in these assays?
Chronic BCR inh: inconclusive; Pin1 inhibitor: -2%; PKM2 activator: 13%; miR-21 reporter: 18%; B2AR arrestin: 0%; PINK1 expr mod: 40µM*

Results for CN1CCN(c2cccc(CNc3nn4c(=O)c5ccccc5nc4s3)c2)CC1 ?
Pin1 inhibitor: -36%

What do the screens show for `Cc1cnc(-n2ncc(C(=O)NCc3cccnc3)c2C)nc1-c1ccc(F)cc1`?
PINK1 expr mod: 1%

How did Cc1ccccc1OCc1nnc2c3cnn(C)c3ncn12 do in these assays?
Chronic BCR inh: 13%; Pin1 inhibitor: 0%; PKM2 activator: 28µM*; miR-21 reporter: -26%; B2AR arrestin: 0%; PINK1 expr mod: 4%

Results for COc1ccc(C(=O)N/N=C/c2c(C)[nH]c(=O)[nH]c2=O)cc1 ?
Chronic BCR inh: inconclusive; Pin1 inhibitor: 0%; PKM2 activator: 2%; miR-21 reporter: -5%; B2AR arrestin: 0%; PINK1 expr mod: 0%

What do the screens show for `COc1ccc(CO/N=C/c2c(C)[nH]c(=O)[nH]c2=O)cc1`?
Chronic BCR inh: -21%; Pin1 inhibitor: 0%; PKM2 activator: 25µM*; miR-21 reporter: -19%; B2AR arrestin: 0%; PINK1 expr mod: 1%

What do the screens show for `CCC1CCCCN1CC(=O)Nc1cc(C)nn1-c1nc(C)cc(C)n1` (configuration not stated)?
Chronic BCR inh: inconclusive; Pin1 inhibitor: 2%; PKM2 activator: -1%; miR-21 reporter: 26%; B2AR arrestin: 35µM*; PINK1 expr mod: 2%[38.3 µM]

The list goes on; it opens with the 2 that closed the last part.
What do the screens show for `COc1ccc(CO/N=C/c2c(C)[nH]c(=O)[nH]c2=O)cc1`?
Chronic BCR inh: -21%; Pin1 inhibitor: 0%; PKM2 activator: 25µM*; miR-21 reporter: -19%; B2AR arrestin: 0%; PINK1 expr mod: 1%

What do the screens show for `CCC1CCCCN1CC(=O)Nc1cc(C)nn1-c1nc(C)cc(C)n1` (configuration not stated)?
Chronic BCR inh: inconclusive; Pin1 inhibitor: 2%; PKM2 activator: -1%; miR-21 reporter: 26%; B2AR arrestin: 35µM*; PINK1 expr mod: 2%[38.3 µM]

Results for Cc1cc(C)nc(-n2nc(C)cc2NC(=O)CN2CCCC2)n1 ?
Chronic BCR inh: 1%; Pin1 inhibitor: -1%; PKM2 activator: -3%; miR-21 reporter: -4%; B2AR arrestin: inconclusive; PINK1 expr mod: 0%

What do the screens show for `C[C@@H]1CN(Cc2ccc3c(c2)CN(Cc2cn[nH]c2-c2ccccc2)CCO3)C[C@H](C)O1`?
PINK1 expr mod: 0%

Results for Cc1ccc(NC(=S)NNc2ncc(C(F)(F)F)cc2Cl)c(C)c1 ?
Chronic BCR inh: 31%; Pin1 inhibitor: 4%; PKM2 activator: 0%; miR-21 reporter: 9%; B2AR arrestin: 0%; PINK1 expr mod: 7%

How did Fc1ccc(NC(=S)NNc2ncc(C(F)(F)F)cc2Cl)c(F)c1 do in these assays?
Chronic BCR inh: inconclusive; Pin1 inhibitor: 1%; PKM2 activator: -13%; miR-21 reporter: inconclusive; B2AR arrestin: -1%; PINK1 expr mod: 10µM*

Screens deposited in PubChem by National Center for Advancing Translational Sciences (NCATS).
